From patent US20200362033A1 (Daiichi Sankyo, published 2020)

T1: hCD147v2 (22-205), CD147 protein expressed in Escherichia coli, tag cleaved (human, UniProt P35613-2 22-205)
T1 construct: also called human CD147
T1 sequence: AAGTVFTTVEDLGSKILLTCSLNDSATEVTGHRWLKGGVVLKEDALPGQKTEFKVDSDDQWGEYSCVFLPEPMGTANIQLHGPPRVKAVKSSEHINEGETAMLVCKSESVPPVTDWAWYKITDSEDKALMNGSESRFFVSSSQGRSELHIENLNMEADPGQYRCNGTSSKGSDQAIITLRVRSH

B1: 5F6 (prepared based on the sequences of WO2010/036460) (antibody, V domains shown)
VH: EMKLEESGGGLVQPGGSMKLSCVASGFTFSNYWMNWVRQSPEKGLEWVAQIRLKSYNYATHYAESVKGRFTISRDDSKSSVYLQMNNLRAEDTGIYYCTPDGSDYWGQGTTLTVSS
VL: SIVMTQTPKFLLVSAGDRVTITCKASQSVSNDVAWYQQKPGQSPKLLIYYASNRYTGVPDRFTGSGYGTDFTFTISTVQAEDLAVYFCQQDYSSPYTFGGGTKLEIK
B2: 4A5 (prepared based on the sequences of WO2010/036460) (antibody, V domains shown)
VH: EVQLQQSGPELVKPGASVKISCKASGYTFTDYYMNWVKQSHGKSLEWIGGINPNNGGTSYNQKFKGKATLTVDKSSSTAYMELRSLTSEDSAVYYCARNDGYRGYAMDYWGQGTSVTVSS
VL: not shown
B3: PPAT-082-03 (prepared based on the sequences of WO2017/061602) (antibody, V domains shown)
VH: QVQLVQSGAEVKEPGASVKVSCKASGYTFTSYGISWVRQAPGQGLEWMGWINPNSGGTNYAQKFQGRVTMTRDMSISTAYMELSRLRSDDTAVYYCARGRGSYYAFDIWGQGTMVTVSS
VL: not shown

Each binder was assayed against T1, hCD147v2 (22-205), CD147 protein … (assay: SPR (Biacore T200), antibody captured, CD147 as analyte, 1:1 model).

Kd	Binder
71.9 nM	B1
132 nM	B2
33.2 nM	B3
